We go through two compounds from US9340555B2, “Compounds as tyrosine kinase modulators” (Allergan, Inc., priority 2009, dated 2016).

Amino acid sequences for entries named in this document (tags omitted). Residues count along the entry.
UniProt P09619, 33-1106, species assumed: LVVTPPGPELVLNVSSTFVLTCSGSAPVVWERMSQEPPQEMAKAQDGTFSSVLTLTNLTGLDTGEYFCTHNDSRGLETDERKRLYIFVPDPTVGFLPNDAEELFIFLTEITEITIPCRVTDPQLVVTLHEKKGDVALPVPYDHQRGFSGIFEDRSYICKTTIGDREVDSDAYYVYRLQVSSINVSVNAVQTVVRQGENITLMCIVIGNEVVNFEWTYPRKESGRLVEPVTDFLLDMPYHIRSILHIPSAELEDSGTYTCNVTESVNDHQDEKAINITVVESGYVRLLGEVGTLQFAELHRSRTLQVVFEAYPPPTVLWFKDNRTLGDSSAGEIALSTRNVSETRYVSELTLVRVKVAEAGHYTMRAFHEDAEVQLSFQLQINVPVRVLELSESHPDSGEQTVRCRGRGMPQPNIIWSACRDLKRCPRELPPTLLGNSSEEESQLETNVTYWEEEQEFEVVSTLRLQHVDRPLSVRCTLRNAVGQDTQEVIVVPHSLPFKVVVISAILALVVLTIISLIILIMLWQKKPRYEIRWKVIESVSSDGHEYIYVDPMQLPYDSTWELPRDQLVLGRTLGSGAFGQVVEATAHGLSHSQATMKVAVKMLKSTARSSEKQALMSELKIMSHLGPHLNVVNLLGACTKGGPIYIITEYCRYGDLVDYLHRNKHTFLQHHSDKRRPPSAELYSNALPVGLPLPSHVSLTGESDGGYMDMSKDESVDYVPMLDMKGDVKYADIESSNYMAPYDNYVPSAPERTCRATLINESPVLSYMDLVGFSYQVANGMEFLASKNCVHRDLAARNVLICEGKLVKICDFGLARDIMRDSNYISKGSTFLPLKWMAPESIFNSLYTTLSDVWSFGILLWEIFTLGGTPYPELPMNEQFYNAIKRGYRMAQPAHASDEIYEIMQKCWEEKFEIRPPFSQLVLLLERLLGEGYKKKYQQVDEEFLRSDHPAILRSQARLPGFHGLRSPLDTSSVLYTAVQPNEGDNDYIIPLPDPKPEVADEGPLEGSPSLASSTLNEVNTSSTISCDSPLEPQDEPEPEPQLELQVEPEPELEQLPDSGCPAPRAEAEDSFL
UniProt P17948, 27-1338, species assumed: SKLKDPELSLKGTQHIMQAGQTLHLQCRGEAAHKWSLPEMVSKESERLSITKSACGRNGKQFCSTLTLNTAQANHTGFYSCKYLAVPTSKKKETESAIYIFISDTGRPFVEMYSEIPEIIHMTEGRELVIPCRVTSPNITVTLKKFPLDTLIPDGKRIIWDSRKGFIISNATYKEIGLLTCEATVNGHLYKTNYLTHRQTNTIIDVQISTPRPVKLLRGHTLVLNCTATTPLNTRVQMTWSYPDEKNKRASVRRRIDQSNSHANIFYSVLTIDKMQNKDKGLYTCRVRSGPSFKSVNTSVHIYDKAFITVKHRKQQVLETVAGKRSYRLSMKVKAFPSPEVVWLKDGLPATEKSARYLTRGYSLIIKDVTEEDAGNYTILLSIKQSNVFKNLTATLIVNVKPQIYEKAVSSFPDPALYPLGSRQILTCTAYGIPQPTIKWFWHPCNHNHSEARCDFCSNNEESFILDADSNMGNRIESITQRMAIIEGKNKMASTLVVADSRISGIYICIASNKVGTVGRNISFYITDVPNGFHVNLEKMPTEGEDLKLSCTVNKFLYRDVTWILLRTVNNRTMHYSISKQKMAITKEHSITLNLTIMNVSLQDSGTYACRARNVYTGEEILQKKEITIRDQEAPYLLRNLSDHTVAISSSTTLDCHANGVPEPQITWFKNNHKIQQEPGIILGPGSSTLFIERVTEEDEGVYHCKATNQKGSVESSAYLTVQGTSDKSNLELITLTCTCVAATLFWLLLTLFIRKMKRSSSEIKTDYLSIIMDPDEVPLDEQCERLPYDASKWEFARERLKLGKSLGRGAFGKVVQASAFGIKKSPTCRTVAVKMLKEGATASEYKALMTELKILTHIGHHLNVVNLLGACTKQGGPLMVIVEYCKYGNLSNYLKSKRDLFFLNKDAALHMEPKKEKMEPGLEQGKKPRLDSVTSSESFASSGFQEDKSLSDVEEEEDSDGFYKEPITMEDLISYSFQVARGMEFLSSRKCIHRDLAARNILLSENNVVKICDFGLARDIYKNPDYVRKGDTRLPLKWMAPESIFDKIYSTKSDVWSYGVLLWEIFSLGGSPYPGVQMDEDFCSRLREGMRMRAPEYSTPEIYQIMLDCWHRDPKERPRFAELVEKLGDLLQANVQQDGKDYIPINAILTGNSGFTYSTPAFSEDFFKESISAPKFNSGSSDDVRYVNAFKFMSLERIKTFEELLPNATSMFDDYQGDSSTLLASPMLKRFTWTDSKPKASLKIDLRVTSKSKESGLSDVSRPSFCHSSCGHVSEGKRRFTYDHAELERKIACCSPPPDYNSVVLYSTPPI
UniProt P35968, 786-1356: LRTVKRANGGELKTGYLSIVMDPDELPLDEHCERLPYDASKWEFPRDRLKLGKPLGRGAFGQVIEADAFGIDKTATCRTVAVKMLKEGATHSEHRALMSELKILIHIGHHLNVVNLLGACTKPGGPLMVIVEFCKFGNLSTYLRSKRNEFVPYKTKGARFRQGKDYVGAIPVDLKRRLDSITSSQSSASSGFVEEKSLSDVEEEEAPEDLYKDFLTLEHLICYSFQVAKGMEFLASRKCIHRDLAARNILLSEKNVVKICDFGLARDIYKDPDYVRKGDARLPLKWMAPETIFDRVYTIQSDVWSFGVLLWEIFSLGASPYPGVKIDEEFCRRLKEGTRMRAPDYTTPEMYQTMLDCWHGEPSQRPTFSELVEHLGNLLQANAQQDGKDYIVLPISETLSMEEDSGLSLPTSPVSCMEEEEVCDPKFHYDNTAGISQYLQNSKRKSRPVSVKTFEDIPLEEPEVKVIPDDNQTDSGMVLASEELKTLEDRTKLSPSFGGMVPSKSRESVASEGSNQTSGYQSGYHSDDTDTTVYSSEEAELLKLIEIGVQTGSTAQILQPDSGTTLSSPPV
UniProt P35968, 20-1356: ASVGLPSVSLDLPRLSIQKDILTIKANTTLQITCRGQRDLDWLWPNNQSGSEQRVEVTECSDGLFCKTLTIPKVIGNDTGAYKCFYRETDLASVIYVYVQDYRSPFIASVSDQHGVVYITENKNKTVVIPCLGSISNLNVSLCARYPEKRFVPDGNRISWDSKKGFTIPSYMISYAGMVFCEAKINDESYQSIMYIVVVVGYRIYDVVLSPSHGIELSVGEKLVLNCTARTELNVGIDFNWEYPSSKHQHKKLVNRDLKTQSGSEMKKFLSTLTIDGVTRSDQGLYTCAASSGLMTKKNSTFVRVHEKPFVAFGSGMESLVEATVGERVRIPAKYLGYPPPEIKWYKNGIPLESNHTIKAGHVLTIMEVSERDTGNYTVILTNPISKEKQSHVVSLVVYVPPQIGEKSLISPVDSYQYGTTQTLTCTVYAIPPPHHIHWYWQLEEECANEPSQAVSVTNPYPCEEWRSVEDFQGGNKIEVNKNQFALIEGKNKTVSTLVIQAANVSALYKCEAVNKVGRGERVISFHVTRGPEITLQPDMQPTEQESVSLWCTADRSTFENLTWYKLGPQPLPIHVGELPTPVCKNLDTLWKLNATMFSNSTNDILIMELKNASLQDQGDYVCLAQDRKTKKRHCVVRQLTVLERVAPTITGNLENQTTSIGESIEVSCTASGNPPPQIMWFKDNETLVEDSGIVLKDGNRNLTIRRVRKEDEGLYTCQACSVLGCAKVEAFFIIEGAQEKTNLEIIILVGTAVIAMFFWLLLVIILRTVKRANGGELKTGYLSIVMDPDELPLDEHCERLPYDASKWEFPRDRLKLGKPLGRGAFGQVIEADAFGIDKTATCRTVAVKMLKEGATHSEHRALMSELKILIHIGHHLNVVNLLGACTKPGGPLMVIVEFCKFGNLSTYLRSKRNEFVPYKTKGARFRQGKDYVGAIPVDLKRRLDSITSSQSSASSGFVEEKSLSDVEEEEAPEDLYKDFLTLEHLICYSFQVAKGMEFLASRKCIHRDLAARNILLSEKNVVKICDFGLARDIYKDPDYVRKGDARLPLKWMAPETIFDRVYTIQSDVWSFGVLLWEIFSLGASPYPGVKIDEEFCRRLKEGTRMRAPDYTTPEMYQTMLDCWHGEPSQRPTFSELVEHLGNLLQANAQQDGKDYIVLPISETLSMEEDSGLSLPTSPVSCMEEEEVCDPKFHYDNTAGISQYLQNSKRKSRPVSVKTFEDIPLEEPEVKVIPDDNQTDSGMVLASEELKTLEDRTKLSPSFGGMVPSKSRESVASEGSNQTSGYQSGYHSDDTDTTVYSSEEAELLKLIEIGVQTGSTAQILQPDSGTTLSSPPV

For orientation: IC50 means the concentration that gives 50% inhibition.

One assay concerns the target PDGFRβ (Homo sapiens (Human), UniProt P09619). Kind of assay: Enzymic PDGFRβ. It is filed as biochemical.
Another assay deals with VEGFR1 (Homo sapiens (Human), UniProt P17948). The assay can be described thus: Enzymic VEGFR1. It is filed as biochemical.
Assay [1] has as its target human VEGF receptor (VEGFR-2) (Homo sapiens (Human), UniProt P35968). Kind of assay: VEGFR2 Kinase Assay (Enzymic VEGFR2). Format: biochemical. To be noted: His-VEGFR-2 cytoplasmic domain, 3.6 µM ATP. On the procedure: VEGFR2 Kinase Assay The cytoplasmic domain of the human VEGF receptor (VEGFR-2) was expressed as a Histidine-tagged fusion protein following infection of insect cells using an His engineered baculovirus. […] Kinase assays were performed in 96 well microtiter plates that were coated overnight with 30 µg of poly-Glu-[…]:1) in 10 mM Phosphate Buffered Saline (PBS), pH 7.2-7.4. The plates were incubated with 1% BSA and then washed four times with PBS prior to starting the reaction. […] Reactions were initiated by the addition 0.5 ng of purified protein. Following a ten minute incubation at 25° C., the reactions were washed four times with PBS containing 0.05% Tween-20. 100 µl of a monoclonal anti-phosphotyrosine antibody-peroxidase conjugate was diluted 1:10000 in PBS-Tween-20 and added to the wells for 30 minutes. Following four washes with PBS-Tween-20, 100 µl of 0-phenylenediamine Dihydrochloride in Phosphate-citrate buffer, containing urea hydrogen peroxide, was added to the wells for 7 minutes as a colorimetric substrate for the peroxidase. […] IC50 values for compound inhibition were calculated directly from graphs of optical density (arbitrary units) versus compound concentration following subtraction of blank values.

A further assay deals with VEGFR2 (Homo sapiens (Human), UniProt P35968). Kind of assay: VEGF Stimulated Ca++ Signal In Vitro (Cellular VEGFR2, FLIPR). Format: cell-based. The following applies: HUVEC, VEGF stimulation (5 ng/mL), intracellular calcium.

As for `COC(=O)[C@@H]1C[C@@H](O)CN1CCCNC(=O)c1cc2nccc(Oc3ccc(NC(=O)Nc4cc(C)ccc4F)cc3)c2s1` (relative stereo) [Example 17, methyl rel-(2R,4S)-1-{3-[({7-[4-({[(2-fluoro-5-methylphenyl)amino]carbonyl}amino)phenoxy]thieno[3,2-b]pyridin-2-yl}carbonyl)amino]propyl}-4-hydroxypyrrolidine-2-carboxylate], the IC50 at PDGFRβ was determined as 15 nM; against VEGFR1, 10 nM.

For the compound `CCN(CC)CCCNC(=O)c1cc2nccc(Oc3ccc(NC(=O)Nc4cc(C)ccc4F)cc3)c2s1` [Example 70, N-[3-(diethylamino)propyl]-7-[4-({[(2-fluoro-5-methylphenyl)amino]carbonyl}amino)phenoxy]thieno[3,2-b]pyridine-2-carboxamide], the IC50 against PDGFRβ was found to be 12 nM; in assay [1] it was 3 nM; on VEGFR2, 9 nM; against VEGFR1 it was 3 nM.
